# Measurements published in patent publication US20260055126A1, “SMALL MOLECULE COMPOUNDS WITH PHOSPHORYLATED ARYL STRUCTURES AND USE THEREOF” (HANGZHOU PHECDAMED CO., LTD., priority 2022, published 2026).
# Protein sequences, listed by entry. Tags and fused reporters are not part of them. Residues count along the entry.
# UniProt Q99594, 218-435: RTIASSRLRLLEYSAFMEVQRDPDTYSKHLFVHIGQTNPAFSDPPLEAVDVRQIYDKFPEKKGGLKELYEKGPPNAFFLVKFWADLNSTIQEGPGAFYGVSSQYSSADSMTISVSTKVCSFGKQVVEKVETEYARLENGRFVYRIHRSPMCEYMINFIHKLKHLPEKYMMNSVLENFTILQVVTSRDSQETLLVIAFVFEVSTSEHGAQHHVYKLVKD
# UniProt Q15562, 218-447: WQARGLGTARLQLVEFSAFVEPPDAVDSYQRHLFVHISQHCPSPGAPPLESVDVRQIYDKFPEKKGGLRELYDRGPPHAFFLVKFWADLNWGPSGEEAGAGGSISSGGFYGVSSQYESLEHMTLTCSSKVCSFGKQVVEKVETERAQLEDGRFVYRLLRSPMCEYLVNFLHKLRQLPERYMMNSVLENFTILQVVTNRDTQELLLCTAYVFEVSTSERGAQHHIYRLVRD
# UniProt Q15561, 217-434: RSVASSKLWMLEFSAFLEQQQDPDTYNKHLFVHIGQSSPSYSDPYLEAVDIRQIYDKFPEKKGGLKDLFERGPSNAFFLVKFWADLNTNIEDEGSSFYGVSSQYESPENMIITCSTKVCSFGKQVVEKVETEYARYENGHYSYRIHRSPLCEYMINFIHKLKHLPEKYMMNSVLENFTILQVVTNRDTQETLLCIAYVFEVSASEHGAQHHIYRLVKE
# Tests used:
# [1] = system: recombinant TEAD1 protein (194-411, Uniprot ID: P28347); experiment: Thermal shift assay (protein melting point curve), TEAD1; format: binding; design: key: the ability of the compound to bind to the TEAD protein is divided into four levels: ++++, +++, ++, +; the ability of the compound to bind to the TEAD protein is divided into four levels: ++++, +++, ++, +; the ability of the compound to bind to the TEAD protein is divided into four levels: ++++, +++, ++, +; the ability of the compound to bind to the TEAD protein is divided into four levels: ++++, +++, ++, +; conditions: 10 μM TEAD protein, 50 μM test compound
# Method: (§1) The ability of the compounds to increase the melting point of purified recombinant TEAD1/2/3/4 proteins is tested using a thermal shift assay. The strength of the compound's binding to the protein and the selectivity of the compound's binding to the four TEAD subtypes are evaluated by calculating the melting point shift ΔTm−° C. The larger the ΔTm value, the stronger the compound's ability to stabilize the protein, reflecting its stronger binding ability. Based on the Δ Tm value, the ability of the compound to bind to the TEAD protein is divided into four levels: ++++, +++, ++, +.
# (§2) Test method of protein melting point curve: 10 μL of the protein melting point curve experimental system (10 μM TEAD protein, 50 μM test compound, SYPRO® orange (55692, sigma)) is prepared in a 384-well fluorescence quantitative PCR plate according to the following system, and reacted at 4° C. in the dark for 20 minutes. On-machine reaction: ABI QuantStudio Dx fluorescence quantitative PCR instrument; program: from 25° C. to 80° C., increasing the temperature at a rate of 0.05° C./s, and reading the fluorescence channel signal of the corresponding wavelength of SYPRO® orange every second.
# [2] = target: recombinant TEAD3 protein (218-435, Uniprot ID: Q99594) (Homo sapiens (Human), UniProt Q99594); experiment: Thermal shift assay (protein melting point curve), TEAD3; format: binding; conditions: 10 μM TEAD protein, 50 μM test compound
# Method: as §1, with “The larger the ΔTm value, the stronger the compound's ability to stabilize the protein, reflecting its stronger binding ability.” left out
# as §2
# [3] = system: TEAD family proteins; experiment: Thermal shift assay, summary over all TEAD subtypes; format: binding; conditions: summary of Table 1
# Method: as §1, §2
# [4] = target: recombinant TEAD2 protein (218-447, Uniprot ID: Q15562) (Homo sapiens (Human), UniProt Q15562); experiment: Thermal shift assay (protein melting point curve), TEAD2; format: binding; conditions: 10 μM TEAD protein, 50 μM test compound
# Method: as §1, with “The larger the ΔTm value, the stronger the compound's ability to stabilize the protein, reflecting its stronger binding ability.” left out
# as §2
# [5] = target: recombinant TEAD4 protein (217-434, Uniprot ID: Q15561) (Homo sapiens (Human), UniProt Q15561); experiment: Thermal shift assay (protein melting point curve), TEAD4; format: binding; design: key to the marks not given beside the values; conditions: 10 μM TEAD protein, 50 μM test compound
# Method: as §1, with “The larger the ΔTm value, the stronger the compound's ability to stabilize the protein, reflecting its stronger binding ability.” left out
# as §2
# [6] = In vitro liver microsome stability, mouse; format: in vitro ADME; conditions: for metabolic stability: mouse liver microsome environment; for mouse half-life: mouse liver microsomes
# Method: (§3) Testosterone is selected as the positive reference compound. The specific method is as follows:
# (§4) Preparing 0.1MK3 PO4 (pH 7.4) buffer and 3×NADPH stock solution (6 mM, 5 mg/mL), and preheating in a 37° C. water bath; preparing spiking solution of tested compound and control compound: adding 5 μL compound stock solution (10 mM) to 95 μL acetonitrile; preparing 1.5 μM spiking solution in microsomes (0.75 mg/mL): add 1.5 μL spiking solution and 18.75 μL liver microsome solution (20 mg/mL) to 479.75 μL K3PO4 buffer; taking 30 μL spiking solution in microsomes and adding it to the multiwell plate, and incubating at 37° C. for 5 min; adding 15 μL of NADPH stock solution to each well, starting to react, and timing; adding 150 μL of acetonitrile solution containing IS at 0 min, 5 min, 15 min, 30 min, 45 min and 60 min respectively to terminate the reaction; after 10 min of oscillation, centrifuging the reaction at 6000 rpm for 15 min; taking 80 μL of supernatant from each well for LC/MS detection and calculating Ti/2.
# (§5) Liver microsomes of mice, rats, dogs, and human used in the experiment are purchased from Xenotech.
# [7] = In vitro liver microsome stability, human; format: in vitro ADME; conditions: for metabolic stability: human liver microsome environment; for human half-life: human liver microsomes
# Method: as §3, §4, §5
# [8] = In vitro liver microsome stability, rat; format: in vitro ADME
# Method: as §3, §4, §5
# [9] = In vitro liver microsome stability, dog; format: in vitro ADME
# Method: as §3, §4, §5
# [10] = system: Caco-2 cells; experiment: Permeability test on Caco2 cells; format: in vitro ADME; conditions: for Papp average value: n = 2; for Papp: single replicate
# Method: After resuscitation, the Caco-2 cells are transferred to a conventional culture dish and cultured in a high-glucose DMEM medium (containing 10% FBS) at 37° C. and 5% CO2 in an incubator. When the cells cover 80% to 95% of the bottom of the dish, they are digested with trypsin containing 0.25% EDTA to disperse them into a single cell suspension, and the cell concentration is determined using a cell counter, after that, the concentration of the cell suspension is adjusted to 2 to 2.5×10^5/mL with fresh culture medium and inoculated into a Transwell polycarbonate membrane 12-well plate, the fresh culture medium is replaced every two days in the first two weeks and once a day in the last week, the culture is continued for 19 to 21 days to obtain a fully differentiated single cell layer.
SMILES,Δ T m (TEAD3) [2],binding ability to each subtype of TEAD family proteins [3],Δ T m (TEAD2) [4],metabolic stability [6],mouse half-life [6],metabolic stability [7],human half-life [7],Δ T m (TEAD1) [1],other results
Cc1nc(-c2cc(P(C)(C)=O)ccc2Oc2ccc(C(F)(F)F)cc2)no1 [Compound 6],+++,good binding abilities,,,,,,++++,
CP(C)(=O)c1ccc(Nc2ccc(C(F)(F)F)cc2)c(-c2nccc(OC3COC3)n2)c1 [Compound 8],++,good binding abilities,++,good metabolic stabilities,75.4 min,good metabolic stabilities,118 min,++++,Δ T m (TEAD4) [5]: ++++; metabolic stability ([8]; rat liver microsome environment): good metabolic stabilities; rat half-life ([8]; rat liver microsomes): 157 min; metabolic stability ([9]; dog liver microsome environment): good metabolic stabilities; dog half-life ([9]; dog liver microsomes): 177 min; Papp average value ([10]; AP→BL): 7.80 10^−6 cm/s; Papp ([10]; AP→BL): 6.90 10^−6 cm/s and 8.70 10^−6 cm/s; Papp average value ([10]; BL→AP): 50.6 10^−6 cm/s; Papp ([10]; BL→AP): 52.7 10^−6 cm/s and 48.5 10^−6 cm/s; intestinal permeability ([10]; Caco2 cell model): high intestinal hypertonicity
COc1ccc(Nc2ccc(P(C)(C)=O)cc2-c2nccc(OC3COC3)n2)cc1 [Compound 28],+,,++,good metabolic stabilities,> 186 min,good metabolic stabilities,> 186 min,++++,
O=P1(c2ccc(Nc3ccc(C(F)(F)F)cc3)c(-c3ncccn3)c2)CC(c2ccccn2)C1 (stereo not shown) [Compound 22],,good binding abilities,,,,,,+++,
CP(C)(=O)c1ccc(Nc2ccc(C3CC3)cc2)c(-c2nccc(OC3COC3)n2)c1 [Compound 27],+,,++,,,,,++++,
CSc1ccc(Nc2ccc(P(C)(C)=O)cc2-c2nccc(OC3COC3)n2)cc1 [Compound 29],+,,++,,,,,++++,

# More lines, main results first:
Δ T m (TEAD3) [2],binding ability to each subtype of TEAD family proteins [3],Δ T m (TEAD2) [4],metabolic stability [6],mouse half-life [6],metabolic stability [7],human half-life [7],SMILES,Δ T m (TEAD1) [1],other results
,good binding abilities,,,,,,Cn1cnc(-c2cc(P(C)(C)=O)nnc2Nc2ccc(C(F)(F)F)cc2)c1 [Compound 73],++++,
,good binding abilities,,good metabolic stabilities,> 186 min,good metabolic stabilities,> 186 min,C=CP(=O)(C=C)c1ccc(Nc2ccc(C(F)(F)F)cc2)c(-c2cn(C)cn2)c1 [Compound 68],++++,
,good binding abilities,,,,,,Cn1cnc(-c2cc(P(C)(C)=O)ccc2Nc2ccc(S(F)(F)(F)(F)F)cc2)c1 [Compound 75],++++,
+,,+,,,,,CP(C)(=O)c1ccc(NC23CC4CC(CC(C4)C2)C3)c(-c2nccc(OC3COC3)n2)c1 [Compound 31],++++,

# Several values for one entry are separate records, joined by “and”; a condition that tells them apart may be missing. Equal values may be shown once.
